From US8592152B2, “Gene detection assay for improving the likelihood of an effective response to an EGFR antagonist cancer therapy” (Genentech, Inc., priority 2000, dated 2013)

Tests used:
[1] = system: metastatic breast cancer; experiment: FISH/clinical outcome study: single agent Herceptin as 1st line therapy; format: in vivo, human
Description: (§1) The Clinical Testing Assay (CTA) involves two separate IHC assays performed with either monoclonal antibodies 4D5 (after protease digestion of the formalin fixed sample) or CB11 (after heat treatment of the formalin fixed sample). Subjects were eligible if either assay was scored at 2+ or 3+. If both were performed, the final score was the higher of the two results.
(§2) Thus, formalin-fixed cut sections stored between 2.5 and 4.5 years from 540 subjects provided the sample pool for this study.

[2] = system: HER2-overexpressing metastatic breast cancers; conditions: patients with HER2-overexpressing metastatic breast cancers that received extensive prior anti-cancer therapy; cited from earlier work
[3] = system: metastatic breast cancer; experiment: FISH/clinical outcome study: single agent Herceptin as 2nd or 3rd line therapy; format: in vivo, human
Description: as §1, §2

[4] = FISH+, 3+ subgroup, 2nd or 3rd line, N = 107
[5] = FISH-, 2+/3+ combined, 2nd or 3rd line, N = 142
[6] = FISH-, 3+ subgroup, 2nd or 3rd line, N = 107

Substance: Herceptin®: recombinant humanized IgG1 version of the murine anti-HER2 antibody 4D5, commercially available from Genentech
- response rate ([1]; 3+, 2+ subjects, regardless of FISH): 27%
- response rate ([1]; FISH+, 2+/3+ combined): 41%
- No response (number of subjects) ([1]; FISH+, 2+/3+ combined, N = 62): 24
- Response (number of subjects) ([1]; FISH+, 2+/3+ combined, N = 62): 17
- clinical activity [2]: clinically active
- response rate ([3]; 3+ subjects, regardless of FISH): 17%
- No response (number of subjects) ([3]; FISH+, 2+ subgroup, 2nd or 3rd line, N = 35): 12
- No response (number of subjects) ([3]; FISH+, 2+/3+ combined, 2nd or 3rd line, N = 142): 84
- No response (number of subjects) [3, 4]: 72
- Response (number of subjects) [3, 4]: 18
- response rate ([3]; FISH-, 2+ subgroup, 2nd or 3rd line): 0%
- Response (number of subjects) ([3]; FISH-, 2+ subgroup, 2nd or 3rd line, N = 35): 0
- response rate ([3]; FISH-, 2+/3+ combined, 2nd or 3rd line): 0%
- No response (number of subjects) [3, 5]: 37
- Response (number of subjects) [3, 5]: 0
- response rate ([3]; FISH-, 3+ subgroup, 2nd or 3rd line): 0%
- No response (number of subjects) [3, 6]: 17
- Response (number of subjects) [3, 6]: 0
